Patent publication US8314234B2, “Bicyclic pyrimidine kinase inhibitors” (Janssen Pharmaceutica N.V., priority 2006, dated 2012)

The chains behind the UniProt entries cited, without tags or fusion partners.
UniProt P06493, whole entry: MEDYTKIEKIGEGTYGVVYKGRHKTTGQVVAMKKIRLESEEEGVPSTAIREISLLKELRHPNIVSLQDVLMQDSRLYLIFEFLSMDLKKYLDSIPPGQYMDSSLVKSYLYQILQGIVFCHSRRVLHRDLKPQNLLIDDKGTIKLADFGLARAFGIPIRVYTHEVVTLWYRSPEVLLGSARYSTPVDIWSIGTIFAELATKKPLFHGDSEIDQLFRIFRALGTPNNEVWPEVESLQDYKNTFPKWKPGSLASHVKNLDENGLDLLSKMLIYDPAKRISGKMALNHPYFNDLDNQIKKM

Assays:
CDK1 = biological target: T1, CDK1 (Homo sapiens, UniProt P06493); experiment: CDK-1 screening assay; format: biochemical
T1 construct: purchased New England Biolabs, Beverly, Mass; 6020; host or cells: insect cells
Protocol: (§1) 70 μL of the kinase reaction mixture was dispensed into the well of a streptavidin coated FlashPlate™ (Cat. #SMP103, NEN, Boston, Mass.).
(§2) Test compound stock in 100% DMSO (1 μL) was added to the wells resulting in a final concentration of 1% DMSO in the reaction with a 100 μL final reaction volume. Each enzyme was diluted in 50 mM Tris-HCl pH=8.0, 0.1% BSA and 30 μL was added to each well to initiate the reaction. The reaction was incubated for one hour at 30° C. At the end of the 1 hr incubation, the reaction was terminated by aspirating the mixture from the plate and washing the wells twice with PBS containing 100 mM EDTA. The biotinylated peptide substrate became immobilized on the Flashplate and the incorporation of ^33P-γ-ATP was measured by reading the plate on a scintillation counter. Inhibition of the enzymatic activity was measured by observing a reduced amount of ^33P-γ-ATP incorporated into the immobilized peptide.
(§3) A maximum and minimum signal for the assay was determined on each plate. The percent inhibition of a test compound was calculated according to the formula: […]
(§4) The term “ND” means “not determined.”

CDK2 = biological target: T2, CDK2 (Homo sapiens, UniProt P24941); experiment: CDK-2 screening assay; format: biochemical
T2 construct: purchased Upstate Biotech, Lake Placid, N.Y
Protocol: as §1, §2
The CDK2 enzyme in complex with cyclin A is commercially available (Upstate Biotech, Lake Placid, N.Y.).
as §3, §4

NS(=O)(=O)c1ccc(Nc2nc(OCC3CCCCC3)c3cn[nH]c3n2)cc1 [Cpd 23, 4-(4-cyclohexylmethoxy-1H-pyrazolo[3,4-d]pyrimidin-6-ylamino)-benzenesulfonamide]
IC50 (CDK1): 662 nM
IC50 (CDK2): 52 nM
